Test results published in US9284283B2, “Macrocyclic compounds for modulating IL-17” (ENSEMBLE THERAPEUTICS CORPORATION, priority 2012, dated 2016).

Protein sequences, listed by entry. Tags and fused reporters are not part of them. Residues count along the entry.
UniProt Q16552, 20-155 limits assumed: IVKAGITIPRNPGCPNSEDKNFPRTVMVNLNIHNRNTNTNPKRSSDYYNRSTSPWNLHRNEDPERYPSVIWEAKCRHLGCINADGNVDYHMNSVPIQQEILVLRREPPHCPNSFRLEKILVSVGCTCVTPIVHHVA

Tests used:
DNFB-treated BALB/c mice = experiment: Murine model of delayed hypersensitivity (DNFB-induced ear edema)
Experimental: We used a murine model of fluorodinitrobenzene (DNFB)-induced ear edema to test the anti-inflammatory activity of both orally dosed and intraperitoneally dosed exemplary compounds of the invention. BALB/c mice (Harlan Sprague-Dawley, Inc., male, 6-8 weeks old) were topically treated on their shaved abdomen with 30 μL of 0.5% 1-fluoro-2,4-dinitrobenzene (DNFB) (4:1 acetone:olive oil) once on Day 0 and once on Day 1.
For oral dosing (“PO”), exemplary compounds of the invention were either suspended at 3 mg/mL in 20% Cremophor EL (Sigma) (20:80; Cremophor:water) or dissolved at 1 mg/mL or 3 mg/mL in D-α-tocopherol polyethylene glycol 1000 succinate (TPGS; Sigma)/PEG-400/water (20:60:20). For intraperitoneal dosing (“IP”), exemplary compounds of the invention were dissolved in DMSO at a concentration of 5 mg/mL. On day 7, the test compound was administered (PO at either 10 mg/kg or 30 mg/kg; IP at 1, 3, or 10 mg/kg) to DNFB-treated mice. Commercially available anti-mouse IL-17A (BioLegend) administered intraperitoneally at 5 mg/kg in PBS was used as a positive control. Thirty minutes later, 20 μL of 0.2% DNFB was applied to the right ear of animals and vehicle ([…]:olive oil) was applied to the left ear. One and four hours after DNFB challenge, a subset of mice was exsanguinated and plasma prepared from the blood. Twenty-four hours after challenge, the remaining mice were euthanized, and their ears were removed and weighed to determine the amount of edema. Plasma was assayed for interleukin-6, TNF-α, CXCL1, and interferon-γ concentrations using commercially-available assays.

[1] = biological target: biotinylated human IL-17 (binding to IL17R/Fc) (Homo sapiens, UniProt Q16552); experiment: IL-17 competition ELISA II (captured IL17R/Fc, biotinylated IL-17); conditions: read-out: ELISA II
Experimental: In this version, a high binding 96-well plate (Costar #9018) was coated with 20 nM of goat anti-human IgG (KPL 01-10-02) in PBS, 100 μL/well, for 30 min at 37° C. followed by 5 min at 4° C. The plate was then washed in PBST (PBS/0.05% Tween-20) on a plate washer, (BioTek ELx450) then blocked with protein-free blocking buffer (Thermo Scientific #37573) in 250 μL/well for 30 min on a shaker at room temperature, and then washed again. IL17R/Fc (R&D Systems #177-IR; 10 nM in PBST, 100 μL/well) was then added to all wells. The plate was then incubated for 30 minutes at room temperature on the shaker.
While the receptor capture step was underway, compound dilutions were prepared in PBST to a concentration of 1 μM in 1.5 mL tubes. After the receptor capture step, the plate was washed and 50 μL PBST was added to the wells in row B down to row H. Then, 62.5 μL of the 1 μM compound dilutions were added to the wells of row A. From row A, 12.5 μL of the compound solution was removed and added to row B with mixing and this process of 5-fold dilutions was continued, by row, to row G. One of the wells in row A received only PBST (62.5 μL) and this dilution series served as the no competitor control. Then, going up from row G to row A, 50 μL of b-IL-17 (biotinylated human IL-17, R&D Systems #317-ILB; 20 nM) was added to all wells. Row H received 50 μL of PBST and served as the blank row, i.e., no compound and no b-IL-17. The plate was then incubated for 30 minutes at room temperature on the shaker.
After the wash, 100 μL Streptavidin-Horseradish Peroxidase (SA-HRP) (KPL #14-30-00) at 25 ng/mL in PBST was added to each well in the plate and the plate incubated for 30 minutes at room temperature followed by wash and 100 μL SureBlue™ TMB (KPL #52-00-03). After sufficient color development (approx 3-6 minutes), the reaction was fixed by the addition of 100 μL/well 0.5 N HCl and absorbance was measured at 450 nm on a BioTek Synergy 2 plate reader. The absorbances of ‘no competitor’ control and blank control should not exceed 1.5 A.U. and 0.06 A.U., respectively.
Data was processed using BioAssay Enterprise v10.1.4 (CambridgeSoft) software. Linear OD λ450 were plotted against log concentration (x) and fitted to a 4-parameter logistic equation. IC50 was calculated using positive ‘no competitor’ control data as an upper limit and blank control as a lower limit in each assay.

[2] = test system: IL-17-induced GROα secretion from HT-29 cells; experiment: HT-29 cellular assay (IL-17-induced GROα secretion); conditions: read-out: HT-29
Experimental: To test the ability of a compound of the invention to neutralize or antagonize IL-17 bioactivity, the following cell-based assay was used. IL-17 can stimulate epithelial cells and other cells to secrete GROα. The ability of a compound of the invention to neutralize IL-17-induced GROα secretion from the human colorectal adenocarcinoma epithelial cell line HT-29 is tested in this assay.
HT-29 cells (human colorectal adenocarcinoma epithelial cells, ATCC #HTB-38), were maintained in culture/assay medium in tissue culture-treated flasks using standard techniques. HT-29 cells were grown in tissue culture flasks until they were 50-80% confluent on the day before the assay. The day before the assay, the cells were detached from the culture flasks with trypsin+EDTA. The trypsin was inactivated with complete assay medium. […]
At the end of the incubation, the plates are centrifuged (500×g for 5 minutes at room temperature), and the cell culture media is transferred to polypropylene 96-well plates. […] GROα levels are measured with a GROα sandwich ELISA (R+D Systems DuoSet #DY275E), as per the manufacturer's instructions. […] GROα is detected using biotinylated goat anti-human GROα (R+D Systems BAF275) at 200 ng/mL using TMB as a substrate. At the end of the ELISA reactions, plates are read at 450 nm on a microplate reader and compared to a standard calibration curve.

For `O=C1CNC(=O)[C@@H](Cc2ccc(NC(=O)[C@H](Cc3ccccc3Cl)NC(=O)Cc3ccccc3)cc2)NC(=O)CC2(CCCC2)CC(=O)N[C@H](C(=O)O)CCCCN1`, the “reduction in TNF-α, IFN-γ and edema as compared to a PBS control or DMSO control” value (DNFB-treated BALB/c mice; i.p. 10 mg/kg, FIG. 1) was “statistically significant reduction”, the “Reduction in edema (%)” value (DNFB-treated BALB/c mice; ip, 10 mg/kg, ear weight 24 h after DNFB challenge) was 50.1% and the “IFNγ Reduction (%)” value (DNFB-treated BALB/c mice; ip, 10 mg/kg, plasma) was 38.9%. For the same molecule, the “TNFα Reduction (%)” value (DNFB-treated BALB/c mice; ip, 10 mg/kg, plasma) was 25.5%, the IC50 [1] was < 100 nM and the IC50 [2] was < 1000 nM.
